Yeast mating assay 2: variants of the scFv Ab-95

Values reported by Engelhart et al. 2022, doi:10.1038/s41597-022-01779-4 (FLAb copy).

Target: peptide PDVDLGDISGINAS, taken from heptad repeat 2 (HR2) of SARS-CoV-2 spike.

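The library (AAYL52) carries one to three amino acid substitutions per variant, with no insertions or deletions. AlphaSeq pools MATa yeast showing the antibodies with MATalpha yeast showing the peptide. The frequency of each diploid, read from paired DNA barcodes, reflects how well the two displayed proteins bind. The ratio of observed to expected reads was calibrated, replicate by replicate, on BCL2-family standards whose Kd was known from biolayer interferometry. There are three technical replicates.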

Ab-95 is the parent antibody, in scFv form: VH, then the linker GGGGSGGGGSGGGGS, then VL. The heavy chain is unchanged in all variants.
VH: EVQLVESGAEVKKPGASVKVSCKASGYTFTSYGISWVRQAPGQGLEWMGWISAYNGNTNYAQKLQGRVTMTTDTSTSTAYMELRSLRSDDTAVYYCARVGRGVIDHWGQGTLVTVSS
VL: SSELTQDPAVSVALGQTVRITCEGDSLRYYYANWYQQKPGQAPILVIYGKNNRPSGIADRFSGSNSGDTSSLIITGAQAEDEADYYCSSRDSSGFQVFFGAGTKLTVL

Positions count from residue 1 of the parent VL; Y29R puts R in place of Y.
Values are log10 of the apparent Kd in nM; lower means stronger binding.
Where no diploid with the target was found in that replicate, the entry reads "ND": below detection, most likely a poor binder, though not proof of it.
Parent in this assay: reference entry 2.31, copy in this library 2.25.
Empty control strains, which show no peptide, gave a signal in 28% of pairings with library AAYL52; the median was 3.91 and 95% of these signals were weaker than 2.90. No background was subtracted. For each scFv, signals with the empty controls are counted beside the result, with their mean in brackets.

| changes | replicates, log10 nM | control signals |
|---|---|---|
| Y29R/R53P | ND / ND / ND | 2 of 9 (4.32) |
| E23V/D25G | 2.64 / 2.47 / 2.81 | 6 of 9 (3.52) |
| D25H/L27S/P54S | ND / ND / 3.09 | 4 of 9 (4.52) |
| Y29D/K50A/N51L | 2.69 / 2.41 / 2.49 | 3 of 9 (4.12) |
| E23F/Y29H/Y30C | 3.60 / 3.14 / 3.04 | 3 of 9 (4.22) |
| G24R/K50S/S55K | 2.96 / 3.43 / 4.50 | 3 of 9 (3.97) |
| R90Q | 4.15 / 4.22 / 3.79 | 2 of 9 (4.59) |
| A32W/R90K/G94F | ND / 4.08 / ND | 2 of 9 (3.45) |
| A32C/D91A/F98A | 2.69 / 3.25 / 2.53 | 5 of 9 (3.91) |
| N51H/S55W | 4.12 / 2.61 / 2.75 | 2 of 9 (3.57) |
| N33H/R53Q/S88E | 4.88 / ND / ND | 3 of 9 (4.82) |
| R28F/A32D/R53C | ND / ND / ND | 2 of 9 (3.60) |
| P54T/R90C/F98Y | ND / 4.12 / 3.80 | 2 of 9 (4.15) |
| G24S/S89E/R90G | 3.86 / 5.44 / 3.57 | 4 of 9 (3.70) |
| E23Y/Y31P/N33F | 4.49 / ND / ND | 0 of 9 |
| R28Q/K50I | 2.90 / 2.43 / 2.56 | 1 of 9 (4.55) |
| E23Q/G49V/S88V | 4.40 / 5.60 / ND | 2 of 9 (3.72) |
| A32N/K50Q/S88N | 2.89 / 2.55 / 3.22 | 0 of 9 |
| D25Q/Y30W/N52Y | 3.30 / 3.70 / 3.26 | 4 of 9 (4.33) |
| L27H/Y30T/G94I | 4.47 / 3.89 / ND | 4 of 9 (3.91) |
| R90E/F95M | 3.05 / 2.43 / 3.28 | 3 of 9 (4.16) |
| L27P/A32L/S93L | 3.92 / 4.27 / ND | 4 of 9 (4.59) |
| S89D | 2.64 / 2.33 / 2.83 | 4 of 9 (3.53) |
| S26N/Y31P/G49A | 2.76 / 2.23 / 2.39 | 1 of 9 (3.76) |
| N33H/R90Y/V97K | ND / 4.47 / ND | 1 of 9 (4.12) |
| Y31H/Q96I | 2.25 / 2.26 / 1.92 | 7 of 9 (4.33) |
| L27W/G49M/S88D | ND / ND / 4.50 | 1 of 9 (3.77) |
| Y31G/D91T | 2.81 / 2.61 / 2.10 | 5 of 9 (3.77) |
| L27Q/S89Q | 3.30 / 1.91 / ND | 0 of 9 |
| Y29S/Y30P/S93G | 2.70 / 2.49 / 2.56 | 3 of 9 (4.51) |
| Y29C/N52H/F98R | ND / ND / ND | 1 of 9 (4.98) |
| L27D/A32Q/S55Y | ND / 4.12 / 3.88 | 3 of 9 (4.73) |
| F95W/F98C | 3.91 / 3.08 / 3.09 | 0 of 9 |
| A32G | 2.44 / 2.33 / 3.23 | 2 of 9 (4.62) |
| L27E/R28Y/S92M | ND / 5.47 / ND | 3 of 9 (3.92) |
| S26P/S92H/G94K | ND / ND / ND | 2 of 9 (4.47) |
| R53C/S88T/D91N | ND / 4.16 / ND | 2 of 9 (4.14) |
| A32N/Q96R/F98M | 2.80 / 3.31 / 3.62 | 2 of 9 (4.06) |
| G24E/S88A/D91V | 3.21 / ND / ND | 2 of 9 (4.39) |
| N33Q/F98V | 3.76 / ND / ND | 1 of 9 (3.68) |
| D25Y/G49W/D91V | 4.10 / 5.38 / 4.52 | 6 of 9 (3.53) |
| N51K/S88F/F95R | ND / 3.71 / 4.33 | 1 of 9 (3.66) |
| Y31Q/S88F/R90G | 1.71 / 1.75 / 1.47 | 4 of 9 (3.83) |
| G24C/K50Y/F98M | 5.36 / ND / ND | 2 of 9 (3.53) |
| E23F/S26F | 2.12 / 2.88 / 1.97 | 5 of 9 (4.32) |
| Y31A/S93E/G94K | ND / ND / 3.21 | 4 of 9 (3.84) |
| S26F/L27G/V97M | 4.28 / ND / 4.04 | 5 of 9 (3.75) |
| G24P/S93I/F98D | ND / ND / ND | 0 of 9 |
| G24I/S92R/V97R | 3.84 / 3.50 / ND | 3 of 9 (3.79) |
| S55M/S89Q/F95P | 3.30 / 3.40 / 2.65 | 3 of 9 (4.11) |

Repeated from above, the 7 best binders with a signal in all replicates:

changes	replicates, log10 nM	control signals
Y31Q/S88F/R90G	1.71 / 1.75 / 1.47	4 of 9 (3.83)
Y31H/Q96I	2.25 / 2.26 / 1.92	7 of 9 (4.33)
E23F/S26F	2.12 / 2.88 / 1.97	5 of 9 (4.32)
S26N/Y31P/G49A	2.76 / 2.23 / 2.39	1 of 9 (3.76)
Y31G/D91T	2.81 / 2.61 / 2.10	5 of 9 (3.77)
Y29D/K50A/N51L	2.69 / 2.41 / 2.49	3 of 9 (4.12)
Y29S/Y30P/S93G	2.70 / 2.49 / 2.56	3 of 9 (4.51)